Literature values in patent US9402826B2, “Neuronal pain pathway modulators” (The Trustees of Columbia University in the City of New York, priority 2006, dated 2016).
Like-named read-outs stand apart in the source and are kept apart here.

Target: PKA (Homo sapiens, UniProt P17612)
Conditions: cited from earlier work

Measured: IC50

O=C(NC1CCCC1OC(=O)c1cc(O)c(C(=O)c2c(O)cccc2C(=O)O)c(O)c1)c1ccc(O)cc1 (stereo not drawn) [reference compound]
30 nM: read-out: IC50 PKA from literature, Series B, Table 2 | read-out: PKA activity (IC50), Table 1, from Lai et al. 1997 | read-out: PKA inhibition (IC50), Table 3, same values given as from literature in Table 2
